The text below walks through data of PubChem BioAssay AID1224905 (ICCB-Longwood Screening Facility, Harvard Medical School, 2016).

Protein sequences, listed by entry. Tags and fused reporters are not part of them.
UniProt P08753, whole entry, looked up: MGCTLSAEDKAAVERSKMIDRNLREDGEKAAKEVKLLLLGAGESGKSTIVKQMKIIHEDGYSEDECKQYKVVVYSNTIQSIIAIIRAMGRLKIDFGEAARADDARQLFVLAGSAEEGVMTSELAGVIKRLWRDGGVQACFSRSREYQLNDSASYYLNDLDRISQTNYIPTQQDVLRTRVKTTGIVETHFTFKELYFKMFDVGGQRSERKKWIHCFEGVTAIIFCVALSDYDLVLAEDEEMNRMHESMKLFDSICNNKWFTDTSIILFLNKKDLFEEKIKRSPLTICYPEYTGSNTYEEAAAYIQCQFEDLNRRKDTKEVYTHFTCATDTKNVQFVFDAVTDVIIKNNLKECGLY

Out of some 210,000 compounds screened, about 880 (0.42%) were called active. This is one part of a sample in which actives are shown more often than they occur.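 How the source made its calls: active means replicate mean at 85% of control or lower with very high polarization wells dropped (limit read from the data); inactive means the rest.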

This experiment concerns the target Guanine nucleotide-binding protein G(i) subunit alpha-3 (Rattus norvegicus) (UniProt P08753). Put plainly: disruptors of GIV-Galphai3 protein-protein interaction – biochemical, fluorescence polarization, FITC-GIV GBA peptide, rat Galphai3, primary screen (AID 1224905). The following applies: Galpha-i3/FITC-GIV peptide fluorescence polarization, 90 min; hits give low values; scaled: aluminum fluoride 0%, vehicle 100%. A general note: In fluorescence polarisation assays a small probe gives low polarisation when free and higher when bound to something large.
Consider `CN(C)/C=C/c1nc(C(F)(F)F)c(C#N)s1`, for which the percent of control (FP) is 20.7% (active).
As for `O=C(Nc1ccc(-c2nc3ccccc3o2)cc1)C1COc2ccccc2O1` (stereo not given), the percent of control (FP) is 140% (inactive).
As for `Cc1nc2ccc(S(=O)(=O)NCC(=O)Nc3nccs3)cc2s1`, the figure is 103% (inactive); as for `O=C(CSc1ncnc2ccccc12)Nc1nc2ccccc2s1`, 102% (inactive).
As to `CCS(=O)(=O)N1CCC2(CC1)Nc1ccc(Cl)cc1-n1cccc12`, the percent of control (FP) was 105% (inactive).
As for `CC(C)c1cc(C2CCCN2Cc2ccc(Br)cc2)no1` (stereo not given), the figure is 102% (inactive); as for `CC(=O)Oc1ccc(OC(C)=O)c2c1C1C=CC2CC1`, 101% (inactive); as for `CC(=O)Oc1ccccc1C(=O)N1CCN(c2ccccc2F)CC1`, 101% (inactive).
As for `CC(=O)Oc1cccc2c1C(=O)C=CC2=O`, the figure is 77.8% (active); as for `CCc1cc(C2CCCN2C(=O)NCC2CCCO2)on1` (stereo not given), 106% (inactive).
With `O=C(NCc1ccccc1Cl)c1ccc2nc(N3CCOCC3)sc2c1`, the percent of control (FP) was 104% (inactive).
As for `CCOC(=O)C1(C)/C(=N\Nc2ccc(Br)cc2)C(=O)C(=O)N1c1ccccc1` (stereo not given), the figure is 101% (inactive); as for `CC(=O)N1CCc2cc(N3CC(C(=O)N4CCC5(CC4)OCCO5)CC3=O)ccc21` (stereo not given), 107% (inactive); as for `CCC(=O)N1CCc2cc(N3CC(C(=O)N4CCN(C(C)C)CC4)CC3=O)ccc21` (stereo not given), 72.7% (active).
For `CCC(NC(=O)C1CC(=O)N(c2ccc3c(c2)CCN3C(C)=O)C1)c1cccs1` (stereo not given), the percent of control (FP) is 102% (inactive).
Consider `CCSCCOC(=O)C1=C(C)NC2=C(C(=O)CC(c3ccccc3)C2)C1c1ccc(OC)cc1OC` (stereo not given), for which the percent of control (FP) was 105% (inactive).
The figure for `Cc1cc(Nc2cccc(C(F)(F)F)c2)nc2ccc(NC(=O)CSc3ccncc3)cc12` is 102% (inactive); for `COc1ccc(N=C2NC(=O)/C(=C\c3ccc(OCC(C)C)cc3)S2)cc1` it is 107% (inactive).
On to `Cc1cc2c(cc3n2CC(C)(C(=O)NC2CCCCC2)N(Cc2ccc(F)cc2)C3=O)o1` (stereo not given), for which the percent of control (FP) is 102% (inactive).
The figure for `CCn1c(C)nc2c1C(=O)c1ccccc1C2=O` is 102% (inactive); for `Nc1nnc2c(n1)-c1ccccc1C2=O` it is 100% (inactive); for `Cc1cc2c3c(ccc(N)c3n1)C(=O)c1ccccc1-2` it is -32.2% (active).
In the case of `S=C(Cc1ccc(CC(=S)N2CCOCC2)cc1)N1CCOCC1`, the percent of control (FP) is 105% (inactive).
With `O=C(Nc1ccc(O)c(-c2nc3ccccc3s2)c1)c1cccc(N2C(=O)CCC2=O)c1`, the percent of control (FP) was 104% (inactive).
For the compound `CC1CCN(C(=O)CSc2nnc3c(n2)[nH]c2ccccc23)C(C)C1` (stereo not given), the percent of control (FP) was 108% (inactive).
As for `O=C1/C(=C/c2ccc(-c3cc(Cl)ccc3Cl)o2)C=C(c2ccccc2)N1c1ccc(F)cc1`, the figure is 112% (inactive); as for `CCOc1ccc(NC(=O)c2cn(C)c3c(c(C)nn3-c3ccc(F)cc3)c2=O)cc1`, 101% (inactive).
`CC(C)/C=N/NC(=O)c1ccccc1`: the percent of control (FP) is 101% (inactive).
As for `CC(=O)Nn1nc2c(n1)C(=NNC(=O)c1ccccc1)c1nn(NC(C)=O)nc1C2=NNC(=O)c1ccccc1`, the figure is 99.9% (inactive); as for `O=C(NN=c1c(=O)c2ccccc2c1=O)c1ccncc1`, 76.9% (active); as for `O=C(Nc1c(F)cc(F)cc1Br)c1cc(S(=O)(=O)N2CCN(c3ccccc3)CC2)ccc1F`, 106% (inactive).
Regarding `Cc1ccc(S(=O)(=O)N2CSC[C@@H]2C(=O)NCc2csc(C)n2)cc1`, the percent of control (FP) was 105% (inactive).
In the case of `O=C(NCc1ccccn1)c1cc(-c2ccccc2O)no1`, the percent of control (FP) is 97.4% (inactive).
Take `CCn1c(=O)c(=O)n(CC(=O)NCCC2=CCCCC2)c2cccnc21`: the percent of control (FP) is 101% (inactive).
On to `N#CC(C#N)=C(C#N)/C=C/n1c2ccccc2c2ccccc21`, for which the percent of control (FP) is 69.8% (active).
As for `Cn1c(=O)c(C#N)c(O)c2ccccc21`, the figure is 103% (inactive).
The figure for `COc1ccc(Cl)cc1C(=O)Nc1cccc(-c2nc3cccnc3s2)c1` is 108% (inactive).
With `COC(=O)C1C(=O)NC(SCC(=O)Nc2ccccc2C)=C(C#N)C1c1ccc(Cl)cc1Cl` (stereo not given), the percent of control (FP) was 104% (inactive).
For `COc1cccc(C2=N/C(=C\c3ccccc3OC)C(=O)N2c2cccc(F)c2)c1`, the percent of control (FP) is 62.3% (active).
As for `COc1cccc(C2=N/C(=C\c3ccccc3OC)C(=O)N2c2ccc(C)cc2)c1`, the figure is 94% (inactive); as for `COc1cc(/C=C2/N=C(c3ccccc3)N(C)C2=O)cc(OC)c1OC`, 106% (inactive); as for `COc1ccc(NC(=O)C2CCCN(c3nc4ncccc4n4cccc34)C2)cc1` (stereo not given), 128% (inactive).
As to `CC1CCN(C(=O)Cn2nc(Cc3ccncc3)c3ccccc3c2=O)CC1`, the percent of control (FP) is 101% (inactive).
Regarding `O=C1NC(=O)N(c2ccccc2)C(=O)C1=Cc1c2ccccc2cc2ccccc12`, the percent of control (FP) was 101% (inactive).
The figure for `Cn1cccc1/C=C1\C(=O)NC(=S)N(c2ccccc2)C1=O` is 80.1% (active).
In the case of `O=C1NC(=S)N(c2ccc(Br)cc2)C(=O)/C1=C/c1ccsc1`, the percent of control (FP) is 94.1% (inactive).
The figure for `Cc1ccc2c(c1)N(C(=O)CSc1nc3ccccc3o1)C(C)(C)c1ssc(=S)c1-2` is 101% (inactive); for `COc1ccc(CNC(=O)c2cnc(N(C)C)nc2C)cc1` it is 99% (inactive).
With `CCc1nn(CC(=O)NCc2ccc(OC)c(OC)c2)c(=O)c2cc3occc3n12`, the percent of control (FP) is 103% (inactive).
The figure for `O=C(NCCCN1CCOCC1)C1CCN(c2cncnc2N2CCCCC2)CC1` is 113% (inactive); for `CC1=C(C(N)=O)C(c2ccc(Br)cc2)n2ncnc2N1` (stereo not given) it is 111% (inactive).
As for `CSc1ccc(C2C=C(c3cccs3)Nc3ncnn32)cc1` (stereo not given), the figure is -22.3% (active); as for `COc1cccc(C2=CC(c3cccc(OC)c3)n3ncnc3N2)c1` (stereo not given), 96% (inactive).
As for `CC1=C(C(=O)Nc2ccccc2Cl)C(c2cccs2)n2ncnc2N1` (stereo not given), the percent of control (FP) was 98% (inactive).
Consider `CSc1ccc(C2C=C(c3ccc(Cl)s3)Nc3ncnn32)cc1` (stereo not given), for which the percent of control (FP) is -22.3% (active).
As for `Cc1ccc(-n2nc3c(c2NC(=O)c2ccc(S(=O)(=O)N4CCCC4)cc2)CSC3)c(C)c1`, the figure is 102% (inactive); as for `O=C(c1cc2c(s1)-c1ccsc1CC2)N1CCN(c2ccccn2)CC1`, 109% (inactive).
As for `COc1ccc2oc(-c3noc(-c4ccnn4C)n3)c(C)c2c1`, the figure is 106% (inactive); as for `Cc1cc(C)n(CC(=O)NC2CCCC2)c(=O)c1S(=O)(=O)c1ccc(Cl)cc1`, 104% (inactive).
As for `CCN1CCN(C(=O)c2sc3nc(C)nc(N4CCN(c5ccccn5)CC4)c3c2C)CC1`, the figure is 104% (inactive).
